Only a part is listed here, and it is no random draw. The source made the active and inactive calls.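 The calls were made as follows: active = activation factor of 2 or more for CYP2C9 at a 5 µM dose; inactive = the rest.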

The chains behind the UniProt entries cited, without tags or fusion partners.
UniProt P11712, whole entry, looked up: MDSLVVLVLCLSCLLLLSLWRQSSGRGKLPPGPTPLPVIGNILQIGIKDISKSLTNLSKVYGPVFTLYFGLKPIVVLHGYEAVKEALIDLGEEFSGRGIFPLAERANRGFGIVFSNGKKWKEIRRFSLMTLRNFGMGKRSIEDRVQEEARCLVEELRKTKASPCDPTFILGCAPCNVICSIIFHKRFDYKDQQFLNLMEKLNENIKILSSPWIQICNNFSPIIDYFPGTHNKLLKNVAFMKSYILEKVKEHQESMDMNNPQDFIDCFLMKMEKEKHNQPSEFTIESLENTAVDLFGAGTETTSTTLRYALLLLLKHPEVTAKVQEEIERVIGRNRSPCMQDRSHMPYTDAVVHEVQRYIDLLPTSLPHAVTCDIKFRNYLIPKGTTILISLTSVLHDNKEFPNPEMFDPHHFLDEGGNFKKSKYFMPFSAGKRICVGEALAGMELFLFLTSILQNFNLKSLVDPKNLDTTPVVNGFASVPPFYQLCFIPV

For this assay, the target named is Cytochrome P450 2C9 (Homo sapiens) (UniProt P11712). Briefly: human CYP2C9 activators, primary screen, biochemical, luminescence (AID 1024).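 Also: 0 = sulfaphenazole-blocked wells and 1 = vehicle-only wells.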 As to conditions: recombinant CYP2C9, luciferin-H conversion, at 5 µM, hits give high values, factor 1 = untreated enzyme, 0 = blocked.
`CCN(CC)C(=S)SC(NC=O)C(Cl)(Cl)Cl` (stereo not given): the activation factor is inactive: 1.1. As to `O=C(OC1CN2CCC1CC2)C12CC3CC(CC(C3)C1)C2` (stereo not given), the activation factor is inactive: 1.2. Consider `O=C(COc1ccccc1)OC1CN2CCC1CC2` (stereo not given), for which the activation factor was inactive: 1.1. Next, `COP1(=S)c2c(C)nn(CCC#N)c2N=C(c2ccc(F)cc2)N1C` (stereo not given): inactive: 0.7; `Cc1nn(-c2ccccc2)c2c1P(=O)(N1CCOCC1)N(C)C(c1ccccc1)=N2` (stereo not given): inactive: 0.9. On to `Cc1ccc(OCC(=O)OC2CN3CCC2CC3)cc1` (stereo not given), for which the activation factor was inactive: 1.1. Next, `O=P1(Nc2ccc(Br)cn2)COc2ccccc2OC1`: inactive: 0.6.

`O=P1(Nc2ncccn2)COc2ccccc2OC1`: the activation factor is inactive: 1. With `Clc1n[nH]nc1-c1nn[nH][15n]1`, the activation factor is inactive: 1. As to `O=P1(Nc2ccccn2)COc2ccccc2OC1`, the activation factor is inactive: 0.9. `Cc1cccc(OCC(=O)OC2CN3CCC2CC3)c1` (stereo not given): the activation factor was inactive: 0.9. Next, `CCOP1(=S)c2c(C)nn(CCC#N)c2N=C(c2ccccc2F)N1C` (stereo not given): inactive: 0.4; `O=P(Nc1nccs1)(c1ccccc1)c1nc2ccccc2s1` (stereo not given): inactive: 0.4.

On to `CCOP1(=S)c2c(C)nn(CCC#N)c2N=C(c2ccc(F)cc2)N1C` (stereo not given), for which the activation factor is inactive: 0.5. Regarding `O=[N+]([O-])c1ccc2c(c1)nnn2O`, the activation factor is inactive: 1.2.

For `CCOC(=O)NC(Sc1ccccc1)C(Cl)(Cl)Cl` (stereo not given), the activation factor is inactive: 0.7. Next, `CCC(=O)N1C2C3N(C(=O)CC)C1C1N(C(=O)CC)C(C(N1C(=O)CC)N3C(=O)CC)N2C(=O)CC`: inactive: 0.6. Next, `COC(=O)c1cc2c(s1)N=C(c1ccccc1)N(C)P2(=O)N1CCOCC1` (stereo not given): inactive: 0.9; `O=P1(Nc2nc3ccc(Cl)cc3s2)COc2ccccc2O1` (stereo not given): inactive: 0.6; `c1nnnn1CCn1cnnn1`: inactive: 1.1. On to `O=P(Nc1nccs1)(c1ccccc1)c1ccccc1`, for which the activation factor is inactive: 0.7. Next, `O=C(OC1CN2CCC1CC2)c1cccc(Cl)c1` (stereo not given): inactive: 1.1. On to `CCc1nc2c(n1)c1c(non1O)c1c2no[n+]1[O-]`, for which the activation factor is inactive: 0.8. On to `CC(=O)N1C2C3N(C(C)=O)C1C1N(C(C)=O)C(C(N1C(C)=O)N3C(C)=O)N2C(C)=O`, for which the activation factor is inactive: 0.9. For `O=[N+]([O-])c1cccc2n[nH]nc12`, the activation factor is inactive: 1.2. `CC1CCN(C(=O)Oc2c(Cl)cc(Cl)c3cccnc23)CC1`: the activation factor was inactive: 1. As to `Oc1ccccc1CNc1ccccn1`, the activation factor was inactive: 1.1. In the case of `Cc1c2non([O-])c-2c(C)[n+](=O)[n+]1[O-]`, the activation factor was inactive: 1. Next, `CC(C)CC(=O)NC(Sc1ccc(Cl)cc1)C(Cl)(Cl)Cl` (stereo not given): inactive: 0.5; `CCOP(=O)(Nc1ccccc1)OCC`: inactive: 1.1.

Source of the values: PubChem BioAssay AID1024 (Sanford-Burnham Center for Chemical Genomics, 2008).
